This note sets out measurements from patent US20100158863A1, “TRIAZOLOANILINOPYRIMIDINE DERIVATIVES FOR USE AS ANTIVIRAL AGENTS” (ARROW THERAPEUTICS LIMITED, priority 2006, published 2010).

The test system of this assay is HCV replicon 1b. The experiment in a line: ELISA, combined effect of HCV replication inhibitor with interferon αA. Format: cell-based. An excerpt:
ELISA Protocol as in Example 38
The fractional inhibitory concentratin (FIC) can be used to identify a synergistic interaction.
In general terms: In an ELISA, binding on a coated surface is turned into a signal by an enzyme label.

With “interferon αA: interferon αA (Sigma Hu-INF-α A order number 14276)”, the “IC50 of interferon αA in combination” value (at concentrations of [6-(3,4-Dimethoxy-phenyl)-quinazolin-4-yl]-(4-[1,2,4]triazol-1-yl-phenyl)-amine below its IC50) was ≤ 0.008 u/ml. Also, the “ELISA IC50 against HCV replicon 1b” value (interferon αA alone) is listed as 6 u/ml.
